# Test results reported in PubChem BioAssay AID2057 (The Scripps Research Institute Molecular Screening Center, 2009).
# By UniProt entry, the sequences of proteins in these tests, tags left out.
# UniProt Q07820, whole entry, looked up: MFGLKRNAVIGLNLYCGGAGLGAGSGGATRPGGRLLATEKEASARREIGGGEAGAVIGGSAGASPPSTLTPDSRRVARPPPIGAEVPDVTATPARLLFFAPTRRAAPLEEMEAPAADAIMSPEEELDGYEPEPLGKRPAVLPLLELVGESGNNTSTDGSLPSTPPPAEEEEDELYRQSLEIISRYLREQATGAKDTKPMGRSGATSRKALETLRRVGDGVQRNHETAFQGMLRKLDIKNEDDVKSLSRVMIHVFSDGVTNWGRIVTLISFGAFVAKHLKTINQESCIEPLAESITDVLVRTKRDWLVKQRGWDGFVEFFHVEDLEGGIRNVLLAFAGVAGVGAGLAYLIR
# The list shows a part of the results, in another mix than the full data. Active and inactive are the calls of the source.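 The calls were made as follows: active = inhibition above the mean inhibition of all tested compounds plus 3 SD, set per campaign (cut at about 40% in these data); inactive = the rest.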
# Target: Induced myeloid leukemia cell differentiation protein Mcl-1 (Homo sapiens) (UniProt Q07820)
# Test: inhibitors of MCL1 binding to BIM-BH3, primary screen, biochemical, fluorescence polarization (AID 2057);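 also: 0% = DMSO wells and 100% = unlabeled Bim-BH3 peptide control; higher means more loss of mP so more displacement of Bim peptide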
# Conditions: GST-MCL1 / FITC-Bim-BH3 fluorescence polarization; at 10.9 µM; hits give high values
row,SMILES,inhibition
1,COc1ccccc1OP(=O)(Nc1ccc(C)cn1)Oc1ccccc1OC,inactive: 0.77%
2,Cc1ccc(OP(=O)(Nc2nccs2)Oc2ccc(C)cc2)cc1,inactive: -2.69%
3,Clc1ccc(Cl)c(NC2=NCC(CBr)S2)c1 (centres undefined),inactive: 0.59%
4,CN1CCCC(OC(=O)C(c2ccccc2)c2ccccc2)C1 (centres undefined),inactive: 3.99%
5,NC(=O)c1cc([N+](=O)[O-])cc([N+](=O)[O-])c1N,inactive: -11.9%
6,CN(C(=O)Cc1ccc(Cl)c(Cl)c1)[C@H]1CCCC[C@H]1N1CCCC1,inactive: 4.75%
7,Cc1ccc(N/C(=N/P(=O)(N2CCOCC2)N2CCOCC2)N2CCOCC2)cc1,inactive: 5.99%
8,CC(C)CC(=O)NC(Sc1ccc(Cl)cc1)C(Cl)(Cl)Cl (centres undefined),inactive: 3.05%
9,Nc1cc(N)c2nonc2c1[N+](=O)[O-],inactive: -1.35%
10,Oc1ccccc1CNc1ccccn1,inactive: -0.53%
11,Cc1c2non([O-])c-2c(C)[n+](=O)[n+]1[O-],inactive: -0.35%
12,O=C(NC(Sc1ccncn1)C(Cl)(Cl)Cl)c1ccccc1 (centres undefined),inactive: 10.4%
13,CCOP(=O)(Nc1ccccc1)OCC,inactive: 3.77%
14,Cc1cc(SC(NC(=O)c2ccc(F)cc2)C(Cl)(Cl)Cl)ncn1 (centres undefined),inactive: -2.19%
15,Cc1ccc(NP(=O)(Oc2ccccc2F)Oc2ccccc2F)nc1,inactive: 0.32%
16,CN(C(=O)Cc1ccc(Cl)c(Cl)c1)[C@H]1CCCC[C@@H]1N1CCCC1,active: 50.5%
17,O=C(O)c1ccccc1[As](=O)(O)O,inactive: 1.23%
18,CC(=O)Nc1ccc([As](=O)(O)O)cc1,inactive: 4.96%
19,O=P(Nc1nc2ccc(Cl)cc2s1)(c1ccccc1)c1ccccc1,inactive: 4.8%
20,CCN(N=Nc1nonc1N)c1nonc1N,inactive: -2.93%
21,O=[N+]([O-])c1cc([N+](=O)[O-])c(CCN2CCOCC2)c([N+](=O)[O-])c1,inactive: 24.5%
22,O=C(Nc1cc([As](=O)(O)O)ccc1O)c1ccccc1,inactive: -5.31%
23,O=[N+]([O-])c1cccc(NC2=NCC(CBr)S2)c1 (centres undefined),inactive: 1.49%
24,O=[N+]([O-])c1ncn(CCn2ncnc2[N+](=O)[O-])n1,inactive: -12.3%
25,O=[N+]([O-])c1cccc2n[nH]nc12,inactive: -1.68%

row,SMILES,inhibition
1,CC(=O)N1C2C3N(C(C)=O)C1C1N(C(C)=O)C(C(N1C(C)=O)N3C(C)=O)N2C(C)=O,inactive: -1.45%
2,Cc1ccc(NP(=O)(Oc2ccccc2)Oc2ccccc2)nc1,inactive: -10.3%
3,CCc1nc2c(n1)c1c(non1O)c1c2no[n+]1[O-],inactive: 1.91%
4,O=[N+]([O-])c1cc([N+](=O)[O-])c(CCNc2ccccc2)c([N+](=O)[O-])c1,inactive: -3.75%
5,COc1ccc(C2=NCC(CBr)S2)cc1 (centres undefined),inactive: 0.35%
6,CC(C)=N/N=C(\N)N[N+](=O)[O-],inactive: 6.04%
7,CN(C)C(=O)OCCc1n(C)cc[n+]1C,inactive: -2.59%
8,CC1CCN(C(=O)Oc2c(Cl)cc(Cl)c3cccnc23)CC1,inactive: -4.05%
9,Nc1ccc([As](=O)(O)c2ccc(N)cc2)cc1,inactive: -5.86%
10,C[N+]1=C2C=CC=CC=C2SC12C([N+](=O)[O-])=CC([N+](=O)[O-])=C[C-]2[N+](=O)[O-] (centres undefined),active: 66.5%
11,CCN(/C(=N/P(=O)(N1CCOCC1)N1CCOCC1)N1CCOCC1)c1ccc(OC)cc1,inactive: 11.8%
12,c1nnnn1CCn1cnnn1,inactive: -4.65%
13,CC(C)C(=O)NC(Sc1ccccc1)C(Cl)(Cl)Cl (centres undefined),inactive: 7.04%
14,O=P(Nc1nccs1)(c1ccccc1)c1ccccc1,inactive: 1.73%
15,O=P(Nc1nc2ccccc2s1)(c1ccccc1)c1ccccc1,inactive: 8.13%
16,C[C@H]1OP(=O)(Oc2ccccc2)[C@H](O)[C@H](O)[C@H]1N=[N+]=[N-] (some centres undefined),inactive: 1.25%
17,O=P(Nc1ccccn1)(c1ccc(Br)cc1)c1ccc(Br)cc1,inactive: -0.72%
18,CN(C)C1(CNC(=O)c2ccc(Cl)c(S(N)(=O)=O)c2)CCCCC1,inactive: -7.03%
19,Nc1ccc([As](=O)(O)c2ccc([N+](=O)[O-])cc2)cc1,inactive: 5.72%
20,C(Cc1nn[nH]n1)Cc1nn[nH]n1,inactive: 12.9%
21,O=C(OC1CN2CCC1CC2)c1cccc(Cl)c1 (centres undefined),inactive: -4.9%
22,O=[N+]([O-])c1ccc(O)c(/C=N/Nc2ccc([N+](=O)[O-])cc2[N+](=O)[O-])c1,inactive: 4.26%
23,O=[N+]([O-])c1ncn(CCn2cnc([N+](=O)[O-])n2)n1,inactive: -1.11%
24,CC(=O)NC(SC(=S)N(C)C)C(Cl)(Cl)Cl (centres undefined),inactive: 4.92%
25,O=[As](O)(c1ccccc1)c1ccc(O)cc1,inactive: 3.38%

row,SMILES,inhibition
1,CCNC(=S)/N=C(\N)N[N+](=O)[O-],inactive: 3.21%
2,O=C(NC1CCS(=O)(=O)C1)NP(=S)(Oc1ccccc1)Oc1ccccc1 (centres undefined),inactive: -1.19%
3,c1ccc(-c2nn[nH]n2)c(-c2nn[nH]n2)c1,inactive: 6.35%
4,CCOC(=O)NC(Sc1ccccc1)C(Cl)(Cl)Cl (centres undefined),inactive: 12.5%
5,Cc1ccc(NP(=O)(Oc2cccc(C)c2)Oc2cccc(C)c2)nc1,inactive: 0.59%
6,Cc1ccccc1OP(=O)(Nc1ccccn1)Oc1ccccc1C,inactive: 1.48%
7,CN(C)C(=O)Oc1noc2ccccc12,inactive: 9.1%
8,COC(=O)c1cc2c(s1)N=C(c1ccccc1)N(C)P2(=O)N1CCOCC1 (centres undefined),inactive: 2.87%
9,Cc1ccc(OP(=O)(Nc2ccccn2)Oc2ccc(C)cc2)cc1,inactive: 1.49%
10,CC(=O)NC(SC(=S)N(CC(C)C)CC(C)C)C(Cl)(Cl)Cl (centres undefined),inactive: -2.63%
11,O=C(OC1CN2CCC1CC2)c1ccccc1 (centres undefined),inactive: -7.89%
12,CCC(=O)N1C2C3N(C(=O)CC)C1C1N(C(=O)CC)C(C(N1C(=O)CC)N3C(=O)CC)N2C(=O)CC,inactive: -0.1%
13,CC(C)(C)C(=O)NC(Sc1ccccc1)C(Cl)(Cl)Cl (centres undefined),inactive: -3.3%
14,O=P1(Nc2nc3ccc(Cl)cc3s2)COc2ccccc2O1 (centres undefined),inactive: 6.11%
15,CCOc1ccc(C2=NCC(CBr)S2)cc1 (centres undefined),inactive: -2.87%
16,CC(=O)Nc1ccc([As](=O)(O)O)c(O)c1,inactive: -5.33%
17,CC(=O)Nc1ccc(Oc2c([N+](=O)[O-])cc([N+](=O)[O-])cc2[N+](=O)[O-])cc1,inactive: -0.17%
18,CC(=O)c1ccc(N2CC2c2ccncc2)cc1 (centres undefined),inactive: 0.96%
19,Cc1ccccc1CN(C)C(=O)COC(=O)C(O)(c1ccccc1)c1ccccc1,inactive: -2.54%
20,C[C@@H]1C=CCP(=O)(Oc2ccccc2)O1 (some centres undefined),inactive: 2.22%
21,C[C@H]1OP(=O)(Oc2ccccc2)C[C@@H]2O[C@@H]21 (some centres undefined),inactive: -5.86%
22,O=[As](O)(c1cccc(O)c1)c1cccc(O)c1,inactive: 3.73%
23,Cc1cccc(OCC(=O)OC2CN3CCC2CC3)c1 (centres undefined),inactive: 7.82%
24,COc1cc(C(=O)NCC2(N3CCOCC3)CCCCC2)cc(Cl)c1OC(C)C,inactive: 3.3%
25,O=[As](O)(O)c1cccnc1,inactive: 6.71%

row,SMILES,inhibition
1,CS(=O)(=O)c1ccc(Cl)c(NC(=O)COC(=O)C(O)(c2ccccc2)c2ccccc2)c1,inactive: -6.78%
2,O=C(OC1CN2CCC1CC2)c1ccc(Cl)cc1 (centres undefined),active: 88.7%
3,COc1cc(C2NCCC3(OCCO3)C2(C)C)cc(OC)c1OC (centres undefined),inactive: -1.57%
4,CCOP(=O)(Nc1cccc2ccccc12)OCC,inactive: 0.83%
5,CCCOP(=S)(Nc1nc(N)cc(=O)[nH]1)OCCC,inactive: 0.3%
6,Cc1ccc(NCCc2c([N+](=O)[O-])cc([N+](=O)[O-])cc2[N+](=O)[O-])cc1,inactive: 9.99%
7,Nc1ccccc1[As](=O)(O)c1ccccc1,inactive: 13.6%
8,O=C(O)COc1ccc([As](=O)(O)O)cc1[N+](=O)[O-],inactive: 7.46%
9,CS(=O)(=O)c1cc([N+](=O)[O-])c2no[n+]([O-])c2c1,active: 68.5%
10,CCOP1(=S)c2c(C)nn(CCC#N)c2N=C(c2ccccc2F)N1C (centres undefined),inactive: -0.26%
11,O=P(Nc1nccs1)(c1ccccc1)c1nc2ccccc2s1 (centres undefined),inactive: -37.4%
12,O=P(Nc1nccs1)(Oc1ccccc1)Oc1ccccc1,inactive: 0.95%
13,CN(C)C(=O)c1cc([N+](=O)[O-])cc2c1-c1c(cc([N+](=O)[O-])cc1[N+](=O)[O-])C2=O,inactive: -1.52%
14,O=[N+]([O-])c1ccc2c(c1)nnn2O,inactive: 3.35%
15,CN(C(=O)Cc1ccc(Cl)c(Cl)c1)[C@H]1CC[C@@]2(CCCO2)C[C@@H]1N1CCCC1,inactive: 4.92%
16,N#CCCN(C(=O)COC(=O)C(O)(c1ccccc1)c1ccccc1)c1ccc(F)cc1,inactive: 8%
17,CCOP1(=S)c2c(C)nn(CCC#N)c2N=C(c2ccc(F)cc2)N1C (centres undefined),inactive: 5.98%
18,CN(C(=O)Cc1ccccc1)[C@@H]1CC[C@]2(CCCO2)C[C@H]1N1CCCC1,inactive: 5.41%
19,NC(=O)Nc1ccc([As](=O)(O)O)cc1,inactive: 12.9%
20,O=C(/C=C/c1ccccc1)OC1CN2CCC1CC2 (centres undefined),inactive: -8.79%
21,CN(C)C1(CNC(=O)c2ccc(S(C)(=O)=O)cc2)CCCCC1,inactive: 8.52%
22,Cc1nn(-c2ccccc2)c2c1P(=O)(N1CCOCC1)N(C)C(c1ccccc1)=N2 (centres undefined),inactive: 4.62%
23,CC1CCC(C(C)C)C(OP(=O)(Nc2ccccn2)c2ccccc2)C1 (centres undefined),inactive: 5.03%
24,Cc1ccc(C(=O)OC2CN3CCC2CC3)cc1 (centres undefined),inactive: -2.53%
